Source: patent US9012466B2, “Substituted tricyclic pyrazolo-pyrimidine compounds” (ArQule, Inc., priority 2013, dated 2015)

Protein sequences, listed by entry. Tags and fused reporters are not part of them.
UniProt Q06187, whole entry: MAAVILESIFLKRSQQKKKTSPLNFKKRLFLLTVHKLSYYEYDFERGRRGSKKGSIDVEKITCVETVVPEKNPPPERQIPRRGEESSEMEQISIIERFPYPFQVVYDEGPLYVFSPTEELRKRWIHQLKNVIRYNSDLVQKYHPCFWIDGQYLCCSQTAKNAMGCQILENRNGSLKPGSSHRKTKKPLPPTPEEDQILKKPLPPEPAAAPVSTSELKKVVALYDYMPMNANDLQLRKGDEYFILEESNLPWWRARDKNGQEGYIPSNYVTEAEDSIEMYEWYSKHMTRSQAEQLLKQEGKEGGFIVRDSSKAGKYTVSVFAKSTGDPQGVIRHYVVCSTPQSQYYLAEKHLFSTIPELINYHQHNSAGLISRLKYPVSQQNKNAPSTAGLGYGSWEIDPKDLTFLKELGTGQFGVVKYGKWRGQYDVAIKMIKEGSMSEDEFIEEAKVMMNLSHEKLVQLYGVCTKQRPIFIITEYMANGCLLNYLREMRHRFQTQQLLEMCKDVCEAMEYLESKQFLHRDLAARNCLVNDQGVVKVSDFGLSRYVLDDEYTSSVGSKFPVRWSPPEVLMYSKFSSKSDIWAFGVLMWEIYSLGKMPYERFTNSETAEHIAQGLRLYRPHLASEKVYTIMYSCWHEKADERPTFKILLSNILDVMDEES
UniProt Q06187, whole entry C481S: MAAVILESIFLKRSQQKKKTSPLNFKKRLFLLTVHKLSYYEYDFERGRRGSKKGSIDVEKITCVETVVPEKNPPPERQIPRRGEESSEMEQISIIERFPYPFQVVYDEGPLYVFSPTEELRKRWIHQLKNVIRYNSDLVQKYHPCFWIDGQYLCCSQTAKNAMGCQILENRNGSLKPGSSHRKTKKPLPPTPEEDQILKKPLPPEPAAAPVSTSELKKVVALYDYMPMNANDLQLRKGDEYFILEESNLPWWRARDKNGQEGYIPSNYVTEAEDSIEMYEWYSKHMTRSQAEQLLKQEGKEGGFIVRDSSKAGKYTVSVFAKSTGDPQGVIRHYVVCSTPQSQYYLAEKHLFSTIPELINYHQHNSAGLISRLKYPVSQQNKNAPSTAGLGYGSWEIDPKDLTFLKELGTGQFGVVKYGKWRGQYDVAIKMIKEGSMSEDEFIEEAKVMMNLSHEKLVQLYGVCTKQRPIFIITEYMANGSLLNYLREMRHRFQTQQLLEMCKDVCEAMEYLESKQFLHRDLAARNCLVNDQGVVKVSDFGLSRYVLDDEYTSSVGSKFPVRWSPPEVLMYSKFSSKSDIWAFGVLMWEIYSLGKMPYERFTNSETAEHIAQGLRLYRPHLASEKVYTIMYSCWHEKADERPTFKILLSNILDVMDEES

How the values were obtained:
[1] = target: Full-length inactive BTK (Homo sapiens, UniProt Q06187); assay: BTK Kinase Activity Assay; settings: read-out: BTK IC50; AlphaScreen, 25 μM ATP, 30 minute pre-incubation
Protocol: BTK Kinase Activity Assay
After a 30 minute pre-incubation at room temperature, the kinase reaction was initiated by the addition of 5 μl of an activation mixture diluted in assay buffer containing biotinylated PLCγ2 peptide, DOPS/DOPC, PtdIns(3,4,5)P3, and ATP for final concentrations of 100 nM biotinylated PLCγ2, 5.5 μM DOPS, 5.5 μM DOPC, 0.5 μM PtdIns(3,4,5)P3, and 25 μM ATP. The plates were incubated for 60 minutes at room temperature. The reactions were stopped in the dark by the addition of 10 μl stop/detection mixture prepared in assay buffer containing EDTA and AlphaScreen™ Streptavidin Donor and anti-pTYR100 Acceptor beads. The final concentrations were 10 mM EDTA and 500 ng/well of both AlphaScreen™ (Amplified Luminescent Proximity Homogeneous Assay) technology donor and acceptor beads. Assay plates were incubated for 60 minutes at room temperature in the dark, and the plates were read on a Perkin Elmer Envision Multilabel plate reader (excitation wavelength: […], emission wavelength: 570 nm).

[2] = target: Full-length BTKC481S (Homo sapiens, UniProt Q06187, C481S); assay: BTKC481S Kinase Activity Assay; settings: AlphaScreen, 60 μM ATP; test concentration not given
Protocol: BTKC481S Kinase Activity Assay
Test inhibitors and controls (Staurosporine) were prepared in 10% DMSO at 10-fold the desired final concentration, and added to each well of a reaction plate (Corning 96-well half-area solid white nonbinding surface plate) in a volume of 2.5 μl. Full-length BTKC481S was diluted in assay buffer (50 mM Tris, pH 8.0, 0.02 mg/ml BSA, 10 mM MgCl2, 1 mM EGTA, 10% glycerol, 1 mM DTT, 1 mM β-glycerophosphate, and 1 mM NaF) and added to each well in a volume of 17.5 μl for a final concentration in the 25 μl reaction of 10 nM. After a 30 minute pre-incubation at room temperature, the kinase reaction was initiated by the addition of 5 μl of an activation mixture diluted in assay buffer containing biotinylated PLCγ2 peptide, and ATP for final concentrations of 125 nM biotinylated PLCγ2, and 60 μM ATP. The plates were incubated for 60 minutes at room temperature. The reactions were stopped in the dark by the addition of 10 μl stop/detection mixture prepared in assay buffer containing EDTA, Staurosporine and AlphaScreen™ Streptavidin Donor and anti-pTYR100 Acceptor beads. […] Assay plates were incubated for 60 minutes at room temperature in the dark, and the plates were read on a Perkin Elmer Envision Multilabel plate reader (excitation wavelength: […], emission wavelength: 570 nm).

[3] = system: TMD-8; assay: Anti Proliferation Assay (MTS), TMD-8; settings: read-out: MTS/TMD-8, TMD-8 cells, 72 hours treatment
Protocol: (§1) Cell survival was determined by the MTS assay. Briefly, cells were plated in a 96-well plate at 2,000-10,000 cells per well, cultured for 24 hours in complete growth medium, and then treated with various drugs and drug combinations for 72 hours. MTS/PMS was added and incubated for 4 hour, followed by assessment of cell viability using the microplate reader (absorbance at 490 nm). Data were normalized to untreated controls and analyzed with Microsoft Excel.

[4] = system: Rec-1; assay: Anti Proliferation Assay (MTS), Rec-1; settings: read-out: MTS/Rec-1, Rec-1 cells, 72 hours treatment
Protocol: as §1

## Nc1ccc2c(c1)OCC(CNc1ncc3c4[nH]ncc4c(=O)n(-c4ccccc4)c3n1)O2 (stereo not shown)
[1]
  IC50: 36 nM
[2]
  BTK (C481S) (% inhibition): 96.6%
[3]
  IC50: 2200 nM
[4]
  IC50: 19300 nM
